Here are results for one compound from patent US20250064954A1.

Amino acid sequences for entries named in this document (tags omitted). Residues count along the entry.
UniProt P04150, 524-758 limits assumed: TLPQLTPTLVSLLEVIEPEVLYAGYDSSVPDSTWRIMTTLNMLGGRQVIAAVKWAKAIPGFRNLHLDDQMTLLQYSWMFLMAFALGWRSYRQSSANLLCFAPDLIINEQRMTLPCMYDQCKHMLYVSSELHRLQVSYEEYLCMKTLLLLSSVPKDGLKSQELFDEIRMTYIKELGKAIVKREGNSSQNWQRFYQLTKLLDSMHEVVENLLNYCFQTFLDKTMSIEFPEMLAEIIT

SMILES strings stand for the structures.

The assay concerns the target Glucocorticoid Receptor (GR) (Homo sapiens, UniProt P04150). Kind of assay: Cell based GR responsive luciferase reporter assay in HEK293/UASLuc/pBIND-GR cells. The settings on record: 48 hours.

On to `CCCC1O[C@@H]2C[C@H]3[C@@H]4C[C@H](F)C5=CC(=O)C=C[C@]5(C)[C@@]4(F)[C@@H](O)C[C@]3(C)[C@]2(C(=O)COC(=O)c2ccc(CN)cc2)O1` (some centres unmarked), for which the half-maximal effective concentration (EC50) is 0.149 nM. Further, the S/N (ratio of highest RLU on the dose response curve to RLU in untreated wells) came out at 12.4.

By EC50 is commonly meant the concentration at which the effect is half-maximal. Low readings indicate greater potency, high ones weaker potency.
